The conditions of the series: in water. From the text:
All cyclic nucleotides, as well as the free Pharos chromophore were derived from Biolog Life Science Institute (Bremen, Germany). […] Nucleotides were detected at λ = 280 nm.

Regarding “8-[Pharos-575]adenosine -3',5'-cyclic monophosphate [8-[ϕ-575]-cAMP]”, the solubility entry is “approximately 50 mM”.

The values above are taken from article PMC2443153 (BMC Biochemistry, 2008).
